Values of other authors as cited in patent publication US20080286340A1, “Buffered nicotine containing products” (priority 2007, published 2008).

Conditions: cited from earlier work

In the case of `NC(=O)C[C@H](N)C(=O)O` [Aspargine], the Solubility in water is listed as 25.1 g/kg.
